# Experimental data reported in PubChem BioAssay AID492953 (The Scripps Research Institute Molecular Screening Center, 2010).
# Chains of the proteins cited; added tags and fusions are not shown.
# UniProt P68402, whole entry: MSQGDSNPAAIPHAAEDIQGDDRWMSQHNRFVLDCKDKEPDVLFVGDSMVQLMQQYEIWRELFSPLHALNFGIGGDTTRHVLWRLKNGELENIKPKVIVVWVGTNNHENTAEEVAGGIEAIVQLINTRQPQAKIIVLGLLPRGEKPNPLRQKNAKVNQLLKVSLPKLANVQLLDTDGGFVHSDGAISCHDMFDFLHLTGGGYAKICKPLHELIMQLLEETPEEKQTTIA
# The list shows a part of the results, in another mix than the full data. Active and inactive are the calls of the source.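 How the source made its calls: active means inhibition above the mean of all tested compounds plus 3 SD (cut at about 24% in these data); inactive means the rest.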
# Molecular target: Platelet-activating factor acetylhydrolase IB subunit alpha2 (Homo sapiens) (UniProt P68402)
# Assay: inhibition of PAF acetylhydrolase 1b subunit 2 – biochemical, fluorescence polarization, human, primary screen (AID 492953);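 further: 0% = enzyme with DMSO and 100% = wells lacking PAFAH1B2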
# Details: recombinant PAFAH1B2, FP-rhodamine activity probe, at 3.39 µM, stronger effect = higher value
row,Compound,inhibition
1,CCC(=O)N(c1ccccc1)C1(COC)CCN(CCc2cccs2)CC1,inactive: -0.72%
2,CCC(=O)N(c1ccccc1)C1(COC)CCN(CCn2nnn(CC)c2=O)CC1,inactive: -0.19%
